# Assay results: PubChem BioAssay AID1304 (The Scripps Research Institute Molecular Screening Center, 2008)
# Amino acid sequences for entries named in this document (tags omitted).
# UniProt P25929, whole entry: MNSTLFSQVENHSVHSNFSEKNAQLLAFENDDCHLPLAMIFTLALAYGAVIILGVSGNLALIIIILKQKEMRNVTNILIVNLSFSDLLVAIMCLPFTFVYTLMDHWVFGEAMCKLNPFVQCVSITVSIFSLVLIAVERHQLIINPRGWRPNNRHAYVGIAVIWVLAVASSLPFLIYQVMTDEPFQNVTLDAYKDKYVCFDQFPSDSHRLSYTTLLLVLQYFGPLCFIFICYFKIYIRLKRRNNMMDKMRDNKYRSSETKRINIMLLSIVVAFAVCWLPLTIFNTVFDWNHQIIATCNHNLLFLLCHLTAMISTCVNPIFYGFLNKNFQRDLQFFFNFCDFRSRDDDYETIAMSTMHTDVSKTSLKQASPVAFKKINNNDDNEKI
# The entries are a selection whose mix differs from that of the whole data set. Calls of active or inactive are those of the source. No stated cut-off is given here; in the data, active means activation above about 33% (passing the limit was not always enough); inactive means the rest.
# Molecular target: Neuropeptide Y receptor type 1 (Homo sapiens) (UniProt P25929)
# Assay: activation enhancers of human NPY-Y1 – cell-based, primary screen (AID 1304);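 further: cells stimulated with NPY at EC10 then isoproterenol at EC100; 0% = low agonist plus stimulus and 100% = saturating agonist plus stimulus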
# Conditions: NPY-Y1 expressing cells, potentiator/agonist activation; at 3.6 µM; stronger effect = higher value
row,Structure (SMILES),activation
1,CN(C)C(=O)c1c([N+](=O)[O-])cc([N+](=O)[O-])cc1[N+](=O)[O-],inactive: 12.5%
2,COc1ccc(OP(C)(=O)Nc2ccc(Br)cc2)cc1 (stereo unspecified),inactive: 2.85%
3,CCN(CC)CC(O)COC(=O)C(O)(c1ccccc1)C1CCCCC1 (stereo unspecified),inactive: -18.9%
4,O=C(OCCCN1CCCC1)C(O)(c1ccccc1)C1CCCCC1 (stereo unspecified),inactive: -2.81%
5,COc1ccccc1OP(C)(=O)Nc1c(C)n(C)n(-c2ccccc2)c1=O (stereo unspecified),inactive: 14.6%
6,CCc1ccc(OP(C)(=O)Nc2cccnc2)cc1 (stereo unspecified),inactive: -7.48%
7,CP(=O)(Oc1ccccc1)N1CCOC1=O (stereo unspecified),inactive: 6.15%
8,Cc1c(NP(C)(=O)Oc2ccc(C(C)C)cc2)c(=O)n(-c2ccccc2)n1C (stereo unspecified),inactive: -10.7%
9,O=[N+]([O-])c1cc([N+](=O)[O-])c(Nc2ccccn2)c([N+](=O)[O-])c1,inactive: 2.09%
10,COc1ccccc1OP(C)(=O)Nc1ccc(C)cc1C (stereo unspecified),inactive: -4.39%
11,CP(=O)(Nc1ccccn1)Oc1ccccc1 (stereo unspecified),inactive: 10.5%
12,CCc1ccc(OP(C)(=O)O)cc1,inactive: -9.99%
13,COc1ccccc1OP(C)(=O)Nc1ccc(Br)cc1 (stereo unspecified),inactive: 1.66%
14,COc1ccc(OP(C)(=O)Nc2ccccn2)cc1 (stereo unspecified),inactive: 4.25%
15,CN(C)CCOC(=O)C(O)(c1ccccc1)C1CCCC1 (stereo unspecified),inactive: -1.62%
16,Cc1nc2ccc3ccccc3c2o1.O=[N+]([O-])c1cc([N+](=O)[O-])c(O)c([N+](=O)[O-])c1,inactive: -2.99%
17,CP(=O)(Nc1ccc(Cl)cc1Cl)Oc1ccccc1 (stereo unspecified),inactive: -2.06%
18,CP(=O)(OCCOc1ccccc1)OCCOc1ccccc1,inactive: -11.9%
19,Cc1cc(C)cc(OP(C)(=O)Nc2cccc(C(F)(F)F)c2)c1 (stereo unspecified),inactive: 8.78%
20,COc1ccccc1OP(C)(=O)Nc1ccc(C)c(C)c1 (stereo unspecified),inactive: 0.83%
21,COc1ccc(OP(C)(=O)Nc2ccccc2Br)cc1 (stereo unspecified),inactive: 3.85%
